Our source for the pEC50, cAMP accumulation (pEC50 (-log M)) values is patent US20240228572A1, “LONG ACTING GLUCAGON RECEPTOR SELECTIVE PEPTIDES AND METHODS OF USE” (i2o Therapeutics, Inc., priority 2020, published 2024).

What all share (experiment): cell-based or functional assay
Assay [1] deals with rat Glucagon receptor (GCGR) (rat) (UniProt P30082).
Assay [2] concerns the target cynomolgus monkey Glucagon receptor (GCGR) (cynomolgus monkey).
In assay [3] the target is cynomolgus monkey GLP-1 receptor (GLP-1R) (cynomolgus monkey) (UniProt F8V479).
For assay [4], the target named is human GLP-1 receptor (GLP-1R) (human) (UniProt P43220).
Assay [5] concerns the target rat GLP-1 receptor (GLP-1R) (rat) (UniProt P32301).
Assay [6] deals with human Glucagon receptor (GCGR) (human) (UniProt P47871).
The target in a further assay is hGIPR (human) (UniProt P48546).

Consider Exenatide (peptide), for which the pEC50, cAMP accumulation (pEC50 (-log M)) in assay [1] was under 7; in assay [2], under 7; in assay [3] it was 11.4; in assay [4], 12.1; in assay [5], 11.8; in assay [6], 8.61. Moreover, the pEC50, cAMP accumulation (pEC50 (-log M)) with hGIPR (human) was under 9.
